This data set in a line: Properties of the active ingredients (solubility, lipophilicity). The data set is classed as physicochemical.

With `CCCC(C)C1(CC)C(=O)N=C([O-])NC1=O.[Na+]` (stereo not shown) [pentobarbital-Na], the “lipophilic / hydrophilic character” value is reported as “hydrophilic”.

(Values after patent US20040102438A1, “Gaba-receptor modulators for the treatment of neurodegenerative diseases of the eye” (priority 2001, published 2004).)
